Data: ChEMBL document CHEMBL3244256 (J Med Chem, 1979)

How the values were obtained:
Mus musculus [1] = test: Toxicity po dosed whole-body gamma-irradiated mouse compound administered 30 mins prior irradiation; settings: in vivo, 0.5 h
Mus musculus [2] = test: Protective index, ratio of LD50 for mouse to ED50 for antiradiation activity in ip dosed whole-body gamma-irradiated mouse
Mus musculus [3] = test: Toxicity ip dosed whole-body gamma-irradiated mouse compound administered 15 mins prior irradiation; settings: in vivo, 0.25 h
Mus musculus [4] = test: Toxicity po dosed whole-body gamma-irradiated mouse compound administered 30 to 60 mins prior irradiation; settings: in vivo
Mus musculus [5] = test: Toxicity ip dosed whole-body gamma-irradiated mouse compound administered 30 mins prior irradiation; settings: in vivo, 0.5 h

Compound: NCCCC(N)CSP(=O)(O)O (stereo unspecified)
- LD50 (Mus musculus [1]): > 1500 mg/kg
- PI (Mus musculus [2]): > 15
- LD50 (Mus musculus [3]): > 1000 mg/kg

Compound: NCC(N)CSP(=O)(O)O (stereo unspecified)
- LD50 (Mus musculus [4]): 1600 mg/kg
- PI (Mus musculus [2]): > 5.9
- LD50 (Mus musculus [5]): > 900 mg/kg

Compound: NCCC[C@H](N)CSP(=O)(O)O
- LD50 (Mus musculus [1]): > 1000 mg/kg
- PI (Mus musculus [2]): > 22
- LD50 (Mus musculus [3]): > 800 mg/kg

Compound: NCCCCCC(N)CSP(=O)(O)O (stereo unspecified)
- LD50 (Mus musculus [1]): > 1000 mg/kg
- PI (Mus musculus [2]): 8
- LD50 (Mus musculus [3]): 500 mg/kg

Compound: NCC[C@H](N)CSP(=O)(O)O
- LD50 (Mus musculus [1]): > 1500 mg/kg
- PI (Mus musculus [2]): > 23
- LD50 (Mus musculus [3]): > 1250 mg/kg

Compound: NCCCCC(N)CSP(=O)(O)O (stereo unspecified)
- LD50 (Mus musculus [1]): 900 mg/kg
- PI (Mus musculus [2]): 29
- LD50 (Mus musculus [3]): 450 mg/kg

Compound: NCCCC[C@H](N)CSP(=O)(O)O
- LD50 (Mus musculus [1]): 750 mg/kg
- PI (Mus musculus [2]): 20
- LD50 (Mus musculus [3]): 325 mg/kg
